# Results taken from patent US20090318496A1, “PREPARATION CONTAINING FIBRATE AGENT AND PROCESS FOR PRODUCING THE SAME” (ASKA Pharmaceutical Co., Ltd., priority 2006, published 2009).
# System: lipid and others in blood (TC, TG, PL, NEFA in serum)
# Test: Decrease of lipid in blood by combination use of fenofibrate and pitavastatin in dog (serum TC, TG, PL, NEFA)
# Assay type: in vivo
# Description: Examination of decrease of lipid and others in blood by combination use of fenofibrate (FEN) and pitavastatin (PIT) in dog
# Dogs [female and male beagles (YAKUKEN BEAGLE) (11 male dogs and 2 female dogs, 27 to 73 months old)] were used for the examination. Incidentally, each of the dogs was accommodated in a separate bracket cage in a breeding room under the following conditions: a room temperature of 23±3° C., a humidity of 50±10%, a light period of 8:00 to 20:00, and a dark period of 20:00 to 8:00. Moreover, the dog was given 300 g of CD-5M (manufactured by CLEA Japan, Inc.) as a food once a day. Incidentally, the dog was freely allowed to have tap water.
# Fenofibrate (FEN) (20 mg/kg) and pitavastatin (PIT) (2 mg/kg) were used as test substances.
# Four hours (Day0-4 hr) and 24 hours (Day0-24 hr) after feeding on the day before the administration start day, blood was collected from antebrachial radial veins, and serum and plasma containing sodium citrate (a citric sodium aqueous solution having a concentration of 3.8% by weight) were obtained. Then using the serum, the total cholesterol (TC), the triglyceride (TG), the phospholipid (PL), and the free fatty acid (NEFA) were quantitatively determined by a Toshiba automatic analyzer (manufactured by Toshiba Medical Systems Corporation, TBA-120FR). Moreover, using the sodium citrate-containing plasma, the amount of fibrinogen was quantitatively determined in accordance with the thrombin time method.
# Thereafter, FEN alone in a dose of 20 mg/kg was orally administered to a first group of dogs once a day for continuous 7 days (FEN group); PIT alone in a dose of 2 mg/kg was orally administered to a second group of dogs once a day for continuous 7 days (PIT group); and FEN in a dose of 20 mg/kg and PIT in a dose of 2 mg/kg were orally administered to a third group of dogs once a day for continuous 7 days (combination group). Incidentally, feeding was performed immediately after every administration.
# Blood was collected after 4 hours of the seventh administration (Day7-4 hr). Using the same manner as in the case of the Day0-4 hr, serum and sodium citrate-containing plasma were obtained, and each of the examinations was performed.
# The quantitation results were shown as “an average value±a standard error”. The statistics analysis was performed as follows: each difference between the quantitative value at Day0-4 hr and each at the blood-collected times after the administration was calculated with respect to every dog, and a difference between the average quantitative value of the FEN group or PIT group and that of the combination group was tested by using Student's t test (one-sided test) when homoscedasticity therebetween was identified by F test or by using Wilcoxon Rank Sum test (one-sided test) when homoscedasticity therebetween was not identified by F test. Incidentally, the obtained value from each test was regarded as a significant difference when the difference value was less than 5%.
# Incidentally, the relative index of each component was calculated based on the formula: (the average value of the concentration in the blood after the administration)/(the average value of the concentration in the blood before the administration).
# [1] = Day 7-4 hr, FEN 20 mg/kg and/or PIT 2 mg/kg orally for 7 days
smiles,measurement,setting,value
"CC(C)OC(=O)C(C)(C)Oc1ccc(C(=O)c2ccc(Cl)cc2)cc1 [FEN, Fenofibrate]",ΔTC,"Day 7-4 hr minus Day0-4 hr, FEN 20 mg/kg and/or PIT 2 mg/kg orally once a day for 7 days, average ± standard error",-21.4 ± 3.9 mg/dL
same,Relative index of NEFA (average concentration after/before administration),[1],0.887
same,Relative index of PL (average concentration after/before administration),[1],0.773
same,Relative index of TC (average concentration after/before administration),[1],0.827
same,Relative index of TG (average concentration after/before administration),[1],0.308
